B1: sp¦P15374¦UCHL3_HUMAN (protein, UniProt P15374 1-230, looked up)
Ubiquitin carboxyl-terminal …: MEGQRWLPLEANPEVTNQFLKQLGLHPNWQFVDVYGMDPELLSMVPRPVCAVLLLFPITEKYEVFRTEEEEKIKSQGQDVTSSVYFMKQTISNACGTIGLIHAIANNKDKMHFESGSTLKKFLEESVSMSPEERARYLENYDAIRVTHETSAHEGQTEAPSIDEKVDLHFIALVHVDGHLYELDGRKPFPINHGETSDETLLEDAIEVCKKFMERDPDELRFNAIALSAA
B2: sp¦O00425¦IF2B3_HUMAN (protein, UniProt O00425 1-579, looked up)
Insulin-like growth factor 2 …: MNKLYIGNLSENAAPSDLESIFKDAKIPVSGPFLVKTGYAFVDCPDESWALKAIEALSGKIELHGKPIEVEHSVPKRQRIRKLQIRNIPPHLQWEVLDSLLVQYGVVESCEQVNTDSETAVVNVTYSSKDQARQALDKLNGFQLENFTLKVAYIPDEMAAQQNPLQQPRGRRGLGQRGSSRQGSPGSVSKQKPCDLPLRLLVPTQFVGAIIGKEGATIRNITKQTQSKIDVHRKENAGAAEKSITILSTPEGTSAACKSILEIMHKEAQDIKFTEEIPLKILAHNNFVGRLIGKEGRNLKKIEQDTDTKITISPLQELTLYNPERTITVKGNVETCAKAEEEIMKKIRESYENDIASMNLQAHLIPGLNLNALGLFPPTSGMPPPTSGPPSAMTPPYPQFEQSETETVHLFIPALSVGAIIGKQGQHIKQLSRFAGASIKIAPAEAPDAKVRMVIITGPPEAQFKAQGRIYGKIKEENFVSPKEEVKLEAHIRVPSFAAGRVIGKGGKTVNELQNLSSAEVVVPRDQTPDENDQVVVKITGHFYACQVAQRKIQEILTQVKQHQQQKALQSGPPQSRRK

Test system: human HL60 cells
Test: SWATH-MS proteomics, differential protein representation, akirin2 KO vs WT HL60 cells
Type: cell-based
Description: Total proteins were extracted from WT and akirin2 KO HL60 cells using the AllPrep DNA/RNA/Protein Mini Kit (Qiagen) and protein concentration was determined using the BCA Protein Assay with BSA (Sigma–Aldrich) as standard. Protein extracts (150 µg per sample, n=3 biological replicates) from each WT and KO cells were trypsin digested using the FASP Protein Digestion Kit (Expedeon Ltd., Abcam, Cambridge, U.K.) and sequencing grade trypsin (Promega, Madison, WI, U.S.A.) following manufacturer’s recommendations. The resulting peptides were finally desalted on to OMIX Pipette tips C18 (Agilent Technologies, Santa Clara, CA, U.S.A.), dried down and stored at −20 °C until mass spectrometry analysis. […] Three micrograms of each protein digest from the three biological replicates of WT and akirin2 KO HL60 cells were used for the generation of the reference spectral ion library as part of the SWATH-MS analysis.
Peptides were eluted in a 120-min gradient from 5 to 30% solvent B in solvent A followed by 15-min gradient from 30 to 60% solvent B in solvent A (solvent A: 0.1% formic acid in water, solvent B: 0.1% formic acid in acetonitrile) and directly injected into the mass spectrometer for analysis. For IDA experiments, the mass spectrometer was set to scanning full spectra (350–1400 m/z) using 250 ms accumulation time per spectrum, followed by up to 50 MS/MS scans (100–1500 m/z). Candidate ions with a charge state between +2 and +5 counts per second above a minimum threshold of 100 were isolated for fragmentation. One MS/MS spectrum was collected for 100 ms, before adding those precursor ions to the exclusion list for 15 s (mass spectrometer operated by Analyst TF 1.6, AB Sciex). Dynamic background subtraction was turned off. MS/MS analyses were recorded in high-sensitivity mode with rolling collision energy on and a collision energy spread of 5. For SWATH quantitative analysis, six independent samples (three replicates from WT and akirin2 KO HL60 cells, 5 µg each) were subjected to the cyclic DIA of mass spectra using the SWATH variable windows calculator (V 1.0, AB Sciex) and the SWATH acquisition method editor (AB Sciex), similar to established methods. […] For these experiments, a 50-ms survey scan (350–1400 m/z) was acquired at the beginning of each cycle, and SWATH–MS/MS spectra were collected from 100–1500 m/z for 70 ms at high-sensitivity mode, resulting in a cycle time of 3.6 s. Collision energy for each window was determined according to the calculation for a charge +2 ion-centered upon the window with a collision energy spread of 15. […] The detected protein threshold was set at 0.05. […] Global normalization was performed according to the Total Area Sums (TAS) of all detected proteins in the samples. […]

[1] = SWATH-MS, akirin2 KO vs WT HL60 cells, over-represented in KO
[2] = KO vs WT HL60 cells, sheet "Under-represented in KO"

| Molecule | Fold Change [1] | Log (Fold Change) [1] | Fold Change [2] | Log (Fold Change) [2] |
| --- | --- | --- | --- | --- |
| B1 | 1.682 | 0.2258 |  |  |
| B2 |  |  | 0.514 | -0.289 |

Reference: PMC8298264, “Function of cofactor Akirin2 in the regulation of gene expression in model human neutrophil-like HL60 cells” (Bioscience Reports, 2021)
